Test results taken from publication PMC12310199 (2025).

B1: Flag-C1QBP, full length [not stated] / PA28γ in 293T cells (co-immunoprecipitation of Figure 1J) [human (endogenous in 293T)] (parent complex)
chain 1: LHTDGDKAFVDFLSDEIKEERKIQKHKTLPKMSGGWELELNGTEAKLVRKVAGEKITVTFNINNSIPPTFDGEEEPSQGQKVEEQEPELTSTPNFVVEVIKNDDGKKALVLDCHYPEDEVGQEDEAESDIFSIREVSFQSTGESEWKDTNYTLNTDSLDWALYDHLMDFLADRGVDNTFADELVELSTALEHQEYITFLEDLKSFVKSQ
chain 2: MASLLKVDQEVKLKVDSFRERITSEAEDLVANFFPKKLLELDSFLKEPILNIHDLTQIHSDMNLPVPDPILLTNSHDGLDGPTYKKRRLDECEEAFQGTKVFVMPNGMLKSNQQLVDIIEKVKPEIRLLIEKCNTVKMWVQLLIPRIEDGNNFGVSIQEETVAELRTVESEAASYLDQISRYYITRAKLVSKIAKYPHVEDYRRTVTEIDEKEYISLRLIISELRNQYVTLHDMILKNIEKIKRPRSSNAETLY

Variants of: B1
Assay: co-immunoprecipitation (IP, western blot with band densitometry printed under lanes); 293T cells transfected for 48 hr; parent: 5.3

Row | response | Variant
1 | 1 relative Flag band intensity in IP | chain 1 G5N
